By UniProt entry, the sequences of proteins in these tests, tags left out. Where a name states a change or a piece, a line headed by the entry shows the natural chain unless it says otherwise.
UniProt Q9Y6L6: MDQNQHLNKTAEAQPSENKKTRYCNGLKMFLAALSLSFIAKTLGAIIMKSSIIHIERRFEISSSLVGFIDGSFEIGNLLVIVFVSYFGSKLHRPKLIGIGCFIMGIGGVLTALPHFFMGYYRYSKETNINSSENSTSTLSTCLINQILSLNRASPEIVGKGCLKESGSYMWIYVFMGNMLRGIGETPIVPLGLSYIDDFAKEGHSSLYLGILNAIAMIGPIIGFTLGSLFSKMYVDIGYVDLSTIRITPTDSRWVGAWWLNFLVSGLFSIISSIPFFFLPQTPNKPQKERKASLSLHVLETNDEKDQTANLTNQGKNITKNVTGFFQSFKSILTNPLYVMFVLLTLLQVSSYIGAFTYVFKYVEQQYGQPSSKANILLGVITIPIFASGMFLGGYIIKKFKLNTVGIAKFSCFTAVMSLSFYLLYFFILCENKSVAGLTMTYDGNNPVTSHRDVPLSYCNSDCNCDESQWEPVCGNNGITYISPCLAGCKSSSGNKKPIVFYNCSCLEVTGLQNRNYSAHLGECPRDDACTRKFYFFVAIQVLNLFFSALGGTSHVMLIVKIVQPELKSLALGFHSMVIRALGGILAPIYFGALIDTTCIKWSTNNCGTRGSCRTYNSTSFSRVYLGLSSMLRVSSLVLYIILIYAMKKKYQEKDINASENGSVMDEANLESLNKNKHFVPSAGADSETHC

According to ChEMBL document CHEMBL3407465, “Interaction of human organic anion transporter polypeptides 1B1 and 1B3 with antineoplastic compounds” (Eur J Med Chem, 2015):

Assays:
[1] = molecular target: Solute carrier organic anion transporter family member 1B1 (Homo sapiens, UniProt Q9Y6L6); assay: Inhibition of human OATP1B1-mediated [3H]estrone 3-sulfate at 100 uM after 5 mins relative to control; type: ADME
OATP1B1 = OATP1B1 (Homo sapiens, UniProt Q9Y6L6); assay: Inhibition of OATP1B1 (unknown origin)-mediated sodium fluorescein expressed in CHO cells at 10 uM; type: ADME, cell-based; details: CHO cells expressing OATP1B1, probe sodium fluorescein

Structure (SMILES): CC(=O)O[C@H]1C(=O)[C@@]2(C)[C@H]([C@H](OC(=O)c3ccccc3)[C@]3(O)C[C@H](OC(=O)[C@H](O)[C@@H](NC(=O)c4ccccc4)c4ccccc4)C(C)=C1C3(C)C)[C@]1(OC(C)=O)CO[C@@H]1C[C@@H]2O [PACLITAXEL]
- inhibition (INH) [1]: 87.6%
- inhibition at 10 µM (OATP1B1): 16.4%
